Compound activity: PubChem, National Center for Advancing Translational Sciences (NCATS)
MmCpn inh = blocks the Methanococcus maripaludis chaperonin Mm-Cpn; actives 0.031% (n = 330,000); Potency, µM (highest dose often 76.9 µM), usual class: inhibitors; purified Mm-Cpn ATPase, ADP Transcreener TR-FRET; active means well fitted inhibition curve with a large enough effect; inconclusive means small, poorly fitted or top-dose-only effect; further: nearly all actives have a fitted effect of over 80% in size
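Reaction buffer contained 30 mM Tris pH 7.4, 100 mM KCl, 5 mM MgCl2 and 1 mM DTT. Mm-CPN (25 nM final) hydrolysed 10 uM ATP over 30 min at 37°C; ADP was read by HTRF.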
hERG WT inh = inhibitors of human wildtype KCNH2 potassium channel. Q12809. U2OS, BacMam KCNH2, thallium flux FluxOr; hits give low values. activity change, % at 1.84 µM. actives 0.37% (n = 340,000);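 active means maximum activity change below -70%; inconclusive means maximum activity change between -70% and -50%; inactive means maximum activity change above -50%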
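U2OS cells were transduced with wild-type KCNH2 virus (2.03 x 10^8 / mL) for 4 h at room temperature, then cultured overnight at 37 C. Thallium flux was read with FluxOr dye. Rate constants were normalized to DMSO controls.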
CCT modulator = modulators of cytosolic chaperonin (CCT/TRiC) activity | purified chaperonin ATPase assay, HTRF ADP detection, 30 min | activity change, % (no concentration beside the values), hits read low | actives 0.3% (n = 360,000); in the data active means activity change below about -30%
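ATPase activity: ADP formed was measured by HTRF Transcreener (665/615 nm ratio) after 30 min at 37 deg C with 10 uM ATP. Compounds screened at one 76 uM concentration against 40 or 20 nM TRiC in Tris pH 7.4/KCl/MgCl2/DTT buffer.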
Rango release inh = inhibitors of RanGTP-induced Rango-importin beta complex dissociation; O95149+P62826; Biochemical FRET Rango-importin beta, RanGTP-induced dissociation; Potency, µM (top dose mostly 46.1 µM); actives 0.071% (n = 340,000); further: nearly all actives have a fitted effect of over 45% in size
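Compounds preincubate 5 min with complex of recombinant Rango and importin beta in PBS with 1 mM DTT. Ran (0.6 uM) loaded with 2 mM GTP plus 0.2 uM RCC1 starts dissociation; FRET is recorded 45 min later.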
KCNH2 3.1 inh = inhibitors of human KCNH2 3.1 potassium channel isoform; U2OS KCNH2 3.1, thallium flux FluxOr; hits give low values; activity change, % (tested at about 1.8 µM); actives 0.95% (n = 340,000);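 active means maximum activity change below -70%; inconclusive means maximum activity change from -70% to -50%; inactive means maximum activity change above -50%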;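 further: thallium influx rate constant from kinetic fluorescence after stimulation buffer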
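U2OS cells transduced with KCNH2 3.1 mutant virus (1.77 x 10^8 /mL, 4 h), plated overnight at 37 C, loaded 45 min with FluxOr dye plus Red40 quencher. Thallium flux rate constant from kinetic reads after stimulation buffer, normalised to controls.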
Rango-impB inh = inhibitors of Rango-importin beta complex formation | Q14974 | Rango CFP/YFP FRET sensor + importin beta, 45 min | Potency, µM (doses to about 92.2 µM) | actives 0.031% (n = 340,000) | AID 540263; further: nearly all actives have a fitted effect of over 15% in size
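FRET biosensor Rango (snurportin 1 IBB between N-terminal EYFP and C-terminal Cerulean), 50 nM in PBS/1 mM DTT/0.02% Tween-20/0.1% BSA, preincubated 5 min RT with compound; 0.125 microM importin beta added, 45 min RT, CFP/YFP FRET ratio read.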
Large screens that a line does not name were inactive. Hits are enriched below; roughly 1.4% of the tested compounds scored in any of these assays. Unless noted, the call rests on the fitted dose curve.

COc1ccc(Nc2nc(NCc3ccco3)nc(N/N=C/c3ccc(O)cc3)n2)cc1	KCNH2 3.1 inh -89.9
COc1ccc(Nc2nc(NCc3ccco3)nc(N/N=C/c3ccccc3F)n2)cc1	KCNH2 3.1 inh -96.6
COc1ccc(/C=N/Nc2nc(NCc3ccco3)nc(Nc3ccc(OC)cc3)n2)cc1	KCNH2 3.1 inh -92.8
CCc1nn2c(NCCOC)cc(C)nc2c1-c1ccc(F)cc1	none
O=[N+]([O-])c1cccc(SSc2cccc([N+](=O)[O-])c2)c1	none (no result: MmCpn inh)
CC1=CC(=O)C=C(C)C1=NOc1ccccc1[N+](=O)[O-]	none
COc1ccccc1C(=O)Nc1cc2c(cc1C(=O)O)OCCCO2	KCNH2 3.1 inh -79.6
O=C(O)c1cc2c(cc1NC(=O)c1ccccc1OC(F)F)OCCCO2	none
O=C(OCCO)c1c(C2=CCCCC2)oc2c1C(OCCO)CCC2 (centres undefined)	none (no result: MmCpn inh, hERG WT inh, Rango release inh, KCNH2 3.1 inh, Rango-impB inh)
C=CCn1cnnc1SCC(=O)Nc1cccnc1Cl	none (no result: hERG WT inh, CCT modulator, Rango release inh, KCNH2 3.1 inh, Rango-impB inh)
O=C(NCC(c1ccco1)N1CCc2ccccc2C1)c1cccc(F)c1 (centres undefined)	none
Cc1ccccc1C(=O)NCC(c1ccco1)N1CCc2ccccc2C1 (centres undefined)	MmCpn inh 39.8µM
Cc1cnc2c(c1)C(=O)c1ccccc1-2	KCNH2 3.1 inh -110.5
Cc1c(C(=O)c2ccccc2)c2ccccn2c1CCc1ccccn1	CCT modulator -69.9
CC(=O)c1ccc(NC(=O)C2CC(c3ccc(F)cc3)=NO2)cc1 (centres undefined)	KCNH2 3.1 inh -97.1
CC(=O)c1cccc(NC(=O)C2CC(c3ccc(F)cc3)=NO2)c1 (centres undefined)	none
Cc1cccc(C)c1NC(=O)C(c1ccccc1)N(C)CCc1ccccc1 (centres undefined)	none (no result: MmCpn inh, hERG WT inh, Rango release inh, KCNH2 3.1 inh, Rango-impB inh)
CN1CCN(NC(=O)c2cn(-c3ccccc3)nc2-c2ccc(OC(F)F)cc2)CC1	none
COc1ccc(C(=O)NCCSC2CCCCC2)cc1	KCNH2 3.1 inh -112.3
COc1ccc(C(=O)N/N=C/c2ccc(OC)c(OS(=O)(=O)c3ccccc3)c2)cc1	hERG WT inh -150.6, KCNH2 3.1 inh -195.3
COc1ccc(/C=N/NS(=O)(=O)c2ccccc2)cc1OS(=O)(=O)c1ccccc1	none
O=S(=O)(c1ccc(Cl)cc1)N1CCN(c2nc(-c3cccs3)nc3ccccc23)CC1	KCNH2 3.1 inh -89.9
O=C(N/N=C/c1c[nH]c2ccccc12)c1cccs1	CCT modulator -39.6
Cc1ccc(-c2c(C(=O)N/N=C/c3c[nH]c4ccccc34)nnn2-c2nonc2N)cc1	CCT modulator -73.6
O=[N+]([O-])c1ccc(N/N=C/c2c[nH]c3ccccc23)cc1	Rango release inh inconclusive, Rango-impB inh 20.6µM
O=[N+]([O-])c1ccccc1N/N=C/c1c[nH]c2ccccc12	none
Cc1cc(C)nc(/N=C(\N)Nc2ccc(OCCC(C)C)cc2)n1	KCNH2 3.1 inh -82.2
COc1ccc(N/C(N)=N/c2nc(C)cc(C)n2)cc1	none (no result: MmCpn inh, Rango release inh, Rango-impB inh)
Cc1cc(C)nc(/N=C(\N)Nc2ccc(OCc3ccccc3)cc2)n1	KCNH2 3.1 inh -79.8
NS(=O)(=O)c1ccc(CNC(=O)Cc2ccsc2)cc1	none (no result: MmCpn inh)
FC(F)(F)Oc1ccc(Nc2nc(N3CCOCC3)nc(N3CCOCC3)n2)cc1	KCNH2 3.1 inh -77.2
O=C(CSc1ccc(-c2ccccn2)nn1)NCc1ccc(F)cc1	none
O=C(CSc1ccc(-c2ccccn2)nn1)NCc1ccccc1	hERG WT inh -115.4
COc1ccc(CNCCC(c2ccccc2)c2ccc3c(c2)OCO3)cc1 (centres undefined)	KCNH2 3.1 inh -80.5
COc1ccc(CNCCC(c2ccc(OC(C)C)cc2)c2ccccc2OC)cc1OC (centres undefined)	MmCpn inh inconclusive, KCNH2 3.1 inh -81.8
COc1cc2c(cc1OC)C(COc1ccc(C(C)C)cc1)NCC2 (centres undefined)	none
N#Cc1ccccc1-c1csc(N2CCC(C(N)=O)CC2)n1	none (no result: hERG WT inh, CCT modulator, Rango release inh, KCNH2 3.1 inh, Rango-impB inh)
CN1CCN(c2ccc(NC(=S)NC(=O)c3cccc4ccccc34)cc2)CC1	KCNH2 3.1 inh -79.4
CN1CCN(c2ccc(NC(=O)c3ccccc3Br)cc2)CC1	none
CN1CCN(c2ccc(NC(=S)NC(=O)c3cccc4c(Br)cccc34)cc2)CC1	KCNH2 3.1 inh -82.7
CN1CCN(c2ccc(NC(=O)COc3cccc4ccccc34)cc2)CC1	none
O=c1c2ccccc2c(/C=N/NS(=O)(=O)c2ccccc2)c(O)n1-c1ccccn1	Rango release inh inconclusive, Rango-impB inh inconclusive
C=CCn1c2ccccc2c2nnc(SCC(=O)O)nc21	CCT modulator -43.4
COc1cc(C(=O)NCc2nc(C)cs2)ccc1OC1CCN(C(C)=O)CC1	KCNH2 3.1 inh -76.4, Rango-impB inh inconclusive
CCN1CCN(C(CNS(=O)(=O)c2ccccc2)c2ccccc2)CC1 (centres undefined)	none
CCOC(=O)N1CCN(C(=O)CCS(=O)(=O)c2ccc3c(c2)CC(C)N3C(=O)CC)CC1 (centres undefined)	CCT modulator -76.9
Cc1ccc(S(=O)(=O)NC(=O)N2CCCC2)cc1	none (no result: MmCpn inh)
COC(=O)c1ccc2nc(NC(=O)C(C)(C)C)sc2c1	none
COC(=O)c1ccc2nc(Nc3nc4ccc(F)cc4s3)sc2c1	Rango release inh 13µM, Rango-impB inh inconclusive
CC1(C)N(O)CC(c2cccs2)=[N+]1[O-]	none
COc1ccc(-c2cc(C(=O)c3c(N)n(C)c(=O)n(C)c3=O)c3ccccc3n2)cc1	none
Cn1c(N)c(C(=O)c2cc(-c3ccccn3)nc3ccccc23)c(=O)[nH]c1=O	hERG WT inh -101.2
O=C(Nc1ccccc1SCC1CSc2nc3ccccc3c(=O)n21)c1cccc(Cl)c1 (centres undefined)	KCNH2 3.1 inh -83.6
Cc1ccc(CN2CCC(c3cc(-c4cccs4)n[nH]3)CC2)cc1	hERG WT inh -71.5, KCNH2 3.1 inh -113.2
COc1ccc(NC(=O)C2=NN(c3ccccc3)C(=O)CC2)cn1	Rango-impB inh 51.7µM
CC(C)NC(=O)C1=NN(c2ccccc2)C(=O)CC1	Rango release inh inconclusive
COc1ccc(CC(=O)NNc2ncnc3c2cnn3-c2ccccc2)cc1	none
COc1ccc(CC(=O)NNc2ncnc3c2cnn3-c2ccc(C)cc2)cc1	Rango release inh 14.6µM
Cn1c(=O)[nH]c(=O)c2c1nc(SCCO)n2CC(O)COc1ccccc1 (centres undefined)	none
Cc1ccc(C)c(OCCC(=O)OC(C)C(=O)Nc2c(C)n(C)n(-c3ccccc3)c2=O)c1 (centres undefined)	none
